Data reported in patent publication US10039764B2, “Treatment and diagnosis of cancer and precancerous conditions using PDE10A inhibitors and methods to measure PDE10A expression” (University of South Alabama, priority 2013, dated 2018).
Like-named read-outs stand apart in the source and are kept apart here.

Chains of the proteins cited; added tags and fusions are not shown. Residues count along the entry.
UniProt Q9Y233, 290-1055 limits assumed: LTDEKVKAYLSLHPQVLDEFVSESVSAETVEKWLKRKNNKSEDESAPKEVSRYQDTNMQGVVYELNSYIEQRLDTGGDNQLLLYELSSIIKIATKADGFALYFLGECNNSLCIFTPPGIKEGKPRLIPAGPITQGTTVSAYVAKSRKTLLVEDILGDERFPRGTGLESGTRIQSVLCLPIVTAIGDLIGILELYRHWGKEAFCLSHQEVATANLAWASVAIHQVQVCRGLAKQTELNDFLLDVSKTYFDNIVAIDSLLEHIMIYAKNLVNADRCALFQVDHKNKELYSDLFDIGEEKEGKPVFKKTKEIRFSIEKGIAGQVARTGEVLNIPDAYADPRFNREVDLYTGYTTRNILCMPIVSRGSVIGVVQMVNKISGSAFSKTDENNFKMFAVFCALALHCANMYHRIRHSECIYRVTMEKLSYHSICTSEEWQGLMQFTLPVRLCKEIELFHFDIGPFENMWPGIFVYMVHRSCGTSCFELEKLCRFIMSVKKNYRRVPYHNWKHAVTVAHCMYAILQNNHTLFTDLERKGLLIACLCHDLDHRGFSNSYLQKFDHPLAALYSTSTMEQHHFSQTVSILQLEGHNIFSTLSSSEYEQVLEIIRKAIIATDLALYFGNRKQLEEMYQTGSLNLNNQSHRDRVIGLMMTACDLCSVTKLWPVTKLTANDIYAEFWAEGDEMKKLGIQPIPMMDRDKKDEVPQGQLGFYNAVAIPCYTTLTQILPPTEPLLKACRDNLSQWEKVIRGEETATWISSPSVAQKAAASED

Target: T1, PDE10A (Homo sapiens, UniProt Q9Y233)
T1 construct: other: substrate cGMP; recombinant enzyme; other: substrate cAMP
Assay: IMAP fluorescence polarization PDE assay, PDE10A
Format: biochemical
Experimental: MY5445 was purchased from EMD Millipore. […] Recombinant PDE enzymes were purchased from BPS Biosciences. DMSO was used as the vehicle for testing effects of all compounds.
PDE enzymatic activity was measured using IMAP fluorescence polarization assay (Molecular Devices. Inc.). […] For experiments involving cell extracts, 2×10^5 cells per well were plated on a six-well tissue culture plate 72 hours prior to cell lysis.
The effect of the inhibitors on the growth of human colon tumor and normal colonocytes was measured using the Cell Titer Glo Cell Viability Assay (Promega) as described above. The inhibitory potency toward purified recombinant phosphodiesterase enzymes was measured using the IMAP Phosphodiesterase Assay as described in the Materials and Methods section.

Question: How did the IC50 turn out when COc1ccc(Cc2nccc3cc(OC)c(OC)cc23)cc1OC [Papaverine, papaverine] was run?
Answer: Its IC50 is 22 nM.

Question: What about the IC50 (substrate cAMP, recombinant enzyme, read-out: Phosphodiesterase Inhibition PDE10A cAMP IC50) of the same molecule?
Answer: Its IC50 is 101 nM.
